The values that follow come from patent US8337856B2, “Methods of treatment using anti-ERBB antibody-maytansinoid conjugates” (Immunogen, Inc., priority 2000, dated 2012).

“Also recorded” adds a separate entry of the source.

The subject of assay [1] is tumors overexpress HER2. Conditions: cited from earlier work.
Assay [2] relates to HER2-transgenic tumors. Kind of assay: MMTV-HER2-transgenic tumors transplanted into mammary fat pad of FVB mice (FIG. 9). The format is in vivo, mouse. As to conditions: conjugate i.v. on 5 consecutive days, antibodies IP twice per week 10 mg/kg. The protocol:
FIG. 9 illustrates the effect of HERCEPTIN®-DM1 on HER2-transgenic tumors. Two mm^3 pieces of MMTV-HER2-transgenic tumors were transplanted into the mammary fat pad of FVB mice. When tumors reached 250 mm^3, groups of 8 mice were injected i.v. on 5 consecutive days with a HERCEPTIN®-DM1 conjugate.
The amount of HER2 extracellular domain (ECD) shed into serum was measured and found to be about 1.2 ng/ml (Huang et al., supra). This mouse subsequently developed a mammary tumor at 5 months of age, after bearing 4 litters. The tumor was surgically resected under aseptic conditions and minced into small pieces, 2 mm^3, which were then transplanted into the mammary fat pad of wild-type FVB female mice. […] Tumors developed in 22 of 31 recipient mice, with a latency of 5 weeks. With subsequent passage, tumors developed with shorter latency and grew more rapidly, and tumor incidence increased to >95% of recipients. HER2 expression, as determined by immunohistochemical staining, was 3+ but heterogeneous in the primary tumor, but became uniformly 3+ after the first passage.
In addition, HER2 appears to be activated in the tumor cells, as evidenced by the binding of an anti-tyrosine phosphorylated HER2 antibody (FIG. 10).
RITUXAN®, an unrelated anti-CD20 monoclonal antibody, was used as a negative control for these studies. […] After approximately 4 weeks, tumors began to regrow. […]

Assay [3] has as its system HER2-transgenic tumors. Kind of assay: HER2 transgenic tumor transplant, dosing regimens (FIG. 11, 13, 14). Type of assay: in vivo, mouse. Conditions: comparison groups to HERCEPTIN®-DM1. The protocol:
Mice with 100 mm^3 tumors were injected i.v. with HERCEPTIN®-DM1 or RITUXAN®-DM1 at doses of 100 or 300 μg DM1/kg twice a week or 300 μg DM1/kg once a week. All animals received 5 doses.
A second dose of HERCEPTIN®-DM1 following the beginning of tumor regrowth was effective in shrinking the tumors again.
The results of a similar experiment are depicted in FIG. 13. The results of three different dosing regimens of HERCEPTIN®-DM1 conjugate on tumor size are shown compared to matching dosing regimens of RITUXAN®-DM1. […] This was true both when the HERCEPTIN®-DM1 was administered once a week and when it was administered twice a week.

The subject of assay [4] is HER2 tumor transplants. Kind of assay: HER2 transgenic tumor transplant in nude mice, doses and schedule (FIG. 12). Conditions: conjugate 10-300 μg DM1/kg once or twice a week, 5 doses, HERCEPTIN® 18 mg/kg twice a week. Type of assay: in vivo. The protocol:
In yet another experiment, the amount of HERCEPTIN®-DM1 conjugate as well as the frequency of administration were varied while keeping the total number of doses at five. The evaluation was carried out in nude mice containing HER2 tumor transplants in mammary pads. […] Another group of animals received HERCEPTIN®-DM1 at 300 or 100 μg DM1/kg once a week for the total of 5 doses.

[5] abbreviates: breast cancer patients progressed after conventional chemotherapy.

Take “HERCEPTIN®: humanized version of murine anti-HER2 antibody 4D5, IgG1 isotype”: the “median time to disease progression” value in assay [1] (all treated patients, clinical trial preceding marketing approval) is recorded as 3.1 months. In assay [1] (setting [5]), the complete responses is 4 % of patients, the “median duration of responses” value is reported as 9.1 months and the partial responses is recorded as 11%. Also, the “effect on growth of the transplanted tumors” value in assay [2] is “only a modest effect; also recorded: little response”. Besides, the “tumor growth in treated animals” value in assay [3] is on record as “rapid growth of tumors”. The “control of growth of mammary tumors” value in assay [4] is reported as “failed to control the growth of mammary tumors”.
